Tested on: Ala-Leu

peptidyl-prolyl cis/trans isomerase (PPIase) Cyp18
rate constant kobs of the cis/trans isomerisation of Ala-Leu with 0 to 8,330 nM Cyp18: no acceleration of the cis to trans reaction could be observed ... the rate constants kobs established are within a range of about 0.43±0.03 s^-1

— patent US7589065
